Among the data in PubChem BioAssay (EPA / NIEHS) are AC50 and outcome values, retold here.

“And” between values parts separate entries of the source, which are not always exact repeats. Equal values may be shown once. The list shows a part of the results, in another mix than the full data. The source made the active and inactive calls. Rule for the calls: active = hit-call score of the fitted dose curve at least 0.9, where 1 is the maximum; inactive = score below 0.9.

This assay can be described thus: ATG_PPRE_CIS: Attagene CIS-FACTORIAL HepG2 Assay for human Peroxisome Proliferator-activated Response Element (PPRE) (AID 2282958). To be noted: HepG2 PPRE cis-element reporter, Attagene transcription factor profiling; actives raise or lower the signal.
As a reminder, the AC50 is the midpoint of the concentration-response curve, whichever way the signal moves. As to `Cc1cccc(N)c1N`, the AC50 was active: 52.9 µM.

In the case of `COc1nc(C)nc(NC(=O)NS(=O)(=O)c2ccccc2Cl)n1`, the result was inactive.

`CCOP(=S)(OCC)Oc1nc(Cl)n(C(C)C)n1`: the result was inactive.

Turning to `CCOP(=O)(OCC)SCCSCC`, the outcome was inactive.

Regarding `O=P1(NCCCl)OCCCN1CCCl` (stereo not given), the call was inactive.

Take `O=S1OCC2C(CO1)C1(Cl)C(Cl)=C(Cl)C2(Cl)C1(Cl)Cl` (stereo not given): the call was inactive.

For `CCOP(OCC)OCC`, the call was inactive.

On to `CN/C(=N\[N+](=O)[O-])NCc1cnc(Cl)s1`, for which the result was inactive.

Consider `ClCc1ccccc1Cl`, for which the call was inactive.

Turning to `Cc1[nH]c(=O)n(C(C)(C)C)c(=O)c1Cl`, the AC50 was active: 20.7 µM.

Turning to `O=C1C=CC(=O)C=C1`, the result was inactive.

`CCNP(=S)(OC)O/C(C)=C/C(=O)OC(C)C` (stereo not given): the AC50 is active: 21.2 µM.

In the case of `C1CN2CCN1CC2`, the compound was classed as inactive.

Consider `O=C(Cl)OCCOCCOC(=O)Cl`, for which the compound was classed as inactive.

With `Cn1c(-c2ccccc2)cc(-c2ccccc2)[n+]1C`, the outcome was inactive.

With `CC(C)(C)c1ccc(CSc2cnn(C(C)(C)C)c(=O)c2Cl)cc1`, the AC50 is active: 0.592 µM.

Regarding `COP(=S)(OC)Oc1nc(Cl)c(Cl)cc1Cl`, the AC50 was active: 7.82 µM.

In the case of `[F][Sn]([c]1ccccc1)([c]1ccccc1)[c]1ccccc1`, the AC50 was active: 0.0218 µM.

Regarding `Nc1ccc(N)cc1`, the compound was classed as inactive.

Consider `COP(=S)(OC)Oc1ccc(S(=O)(=O)N(C)C)cc1`, for which the outcome was inactive.

Turning to `CC(C)CP(=S)(S)CC(C)C`, the result was inactive.

Consider `CC(C)(C1CCC(O)CC1)C1CCC(O)CC1` (stereo not given), for which the compound was classed as inactive.

With `Cc1ccc(N=CN(C)C=Nc2ccc(C)cc2C)c(C)c1`, the compound was called inactive.

With `COc1cc(OC)nc(Sc2cccc(Cl)c2C(=O)O)n1`, the AC50 is active: 24.7 µM.

`Nc1ccc(-c2ccc(N)cc2)cc1`: the compound was classed as inactive.

For the compound `COC(=O)c1ccccc1C(=O)OC`, the compound was classed as inactive.

For the compound `Cl/C=C\C[N+]12CN3CN(CN(C3)C1)C2`, the result was inactive.

With `O=[N+]([O-])/N=C1\NCCN1Cc1ccc(Cl)nc1`, the outcome was inactive.

Consider `CC(C)(O)C#N`, for which the outcome was inactive.

With `CCOc1cccc(C2(N3CCN(c4ccccc4)CC3)CCC(C)CC2)c1` (stereo not given), the result was inactive.

Consider `O=NN1CCCCCC1`, for which the compound was classed as inactive.

For the compound `Clc1ccc(C(Cl)(Cl)Cl)cc1`, the result was inactive.

For `O=C(O)CCl`, the compound was classed as inactive.

In the case of `O=C(O)C(F)(F)C(F)(F)C(F)(F)C(F)(F)C(F)(F)C(F)(F)C(F)(F)C(F)(F)C(F)(F)C(F)(F)F`, the AC50 was active: 21.6 µM and active: 13.4 µM.

For `CCOC(=O)CC(=O)CCl`, the outcome was inactive.
